According to article PMC5770336, “Characterisation of endogenous A2A and A2B receptor-mediated cyclic AMP responses in HEK 293 cells using the GloSensor™ biosensor: Evidence for an allosteric mechanism of action for the A2B-selective antagonist PSB 603” (Biochemical Pharmacology, 2018):

Molecular target: T1, A2BAR (Homo sapiens, UniProt P29275)
T1 sequence (P29275 1-332): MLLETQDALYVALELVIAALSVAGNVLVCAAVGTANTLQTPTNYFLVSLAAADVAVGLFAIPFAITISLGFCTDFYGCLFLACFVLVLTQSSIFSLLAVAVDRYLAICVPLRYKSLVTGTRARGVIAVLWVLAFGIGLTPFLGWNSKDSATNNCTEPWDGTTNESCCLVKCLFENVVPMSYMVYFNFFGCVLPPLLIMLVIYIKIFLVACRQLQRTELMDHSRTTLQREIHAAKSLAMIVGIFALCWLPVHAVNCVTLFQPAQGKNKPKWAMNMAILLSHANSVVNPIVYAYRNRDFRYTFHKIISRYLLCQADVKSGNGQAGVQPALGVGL
Settings: agonist concentration-response curves with increasing antagonist

CCCn1c(=O)c2[nH]c(-c3ccc(OCC(=O)NCCN)cc3)nc2n(CCC)c1=O [XAC, xanthine amine congener]
mode of antagonism (in words): competitive interaction
